The values that follow come from PMC8712300 (European Journal of Nuclear Medicine and Molecular Imaging, 2021).

The experiment concerns the target central benzodiazepine receptor (CBR).

Structures are written as SMILES.

As usually defined, the Ki is a measure of affinity in units of concentration, obtained from inhibition or displacement. A low value points to a stronger hold on the target. The compound `CC(=O)N(Cc1ccccc1OCF)c1cnccc1Oc1ccccc1` returned an inhibition constant Ki greater than 100 µM.
